Measured values as given in PubChem BioAssay AID493005 (National Center for Advancing Translational Sciences (NCATS), 2010).
This is a selection; strong and weak results do not stand in their true shares. Calls of active or inactive are those of the source. The call rests on the fitted dose curve; in most records, active means well fitted inhibition curve with a large enough effect in the main read-out, with a control signal flat (not every such curve was filed as active); inconclusive means small, poorly fitted or top-dose-only effect, or effect the other way, or a change in a side signal; inactive means no such curve, though single readings can be large or run the other way.

Protein sequences, listed by entry. Tags and fused reporters are not part of them.
UniProt Q99816, whole entry: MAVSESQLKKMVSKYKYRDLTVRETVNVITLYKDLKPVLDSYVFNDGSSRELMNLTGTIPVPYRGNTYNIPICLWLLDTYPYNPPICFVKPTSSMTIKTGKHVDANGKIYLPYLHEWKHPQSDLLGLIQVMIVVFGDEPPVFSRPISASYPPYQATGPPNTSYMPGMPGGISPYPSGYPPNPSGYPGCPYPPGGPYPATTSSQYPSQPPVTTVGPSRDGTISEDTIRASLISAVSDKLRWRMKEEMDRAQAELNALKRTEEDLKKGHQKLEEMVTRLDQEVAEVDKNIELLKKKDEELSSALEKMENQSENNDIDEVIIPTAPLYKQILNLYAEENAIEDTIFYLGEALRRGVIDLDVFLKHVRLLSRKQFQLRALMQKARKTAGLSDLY

molecular target: Tumor susceptibility gene 101 protein (Homo sapiens) (UniProt Q99816); test: qHTS Assay for Iinhibitors of HIV-1 Budding by Blocking the Interaction of PTAP/TSG101; conditions: Fluorescence polarization, FITC-PTAP peptide / Tsg101 binding; at 115 µM (top of the series); further: % of control where 0% means no effect
Description: NIH Molecular Libraries Probe Production Network [MLPCN] NIH Chemical Genomics Center [NCGC] MLPCN Grant: 1 R03 MH087464-01A1 PI Name: Dr. Eric Freed, NCI NCGC Assay Overview: Stages of the HIV-1 replication cycle, specifically virus assembly and release, provide underexploited targets for the development of novel antiviral inhibitors. The late stages of HIV-1 replication are mediated by the Gag precursor protein, Pr55Gag. Expression of Pr55Gag is both necessary and sufficient for the production of virus-like particles from Gag-expressing cells. The Gag protein hijacks key host proteins involved in endocytic machinery of the host cell to promote endosomal processing and viral budding. The budding process requires a direct interaction between a […] (PTAP) motif in the p6 domain of Gag and the cellular endosomal sorting protein known as Tsg101. […] A fluorescence anisotropy assay has been developed to quantitatively measure the PTAP-Tsg101 interaction which can be used to screen for inhibitors of this interaction.
NCGC Assay Protocol Summary: Two uL of the Tsg101 binding domain in buffer (10 mM HEPES pH 7.5; 0.15 M NaCl, 0.01% Tween 20; 3 mM EDTA;0.1 mM TCEP) was dispensed into Greiner black MB 1536-well plates (final concentration 10 uM). […] Fluorescent polarization was determined using FITC excitation and polarized emission filters on a Perkin Elmer Viewlux. […]

| Structure (SMILES) | activity change, negative = inhibition |
| --- | --- |
| CCC(=O)N(c1ccccc1)C1(COC)CCN(CCc2cccs2)CC1 | inactive: 1.15% |
| CCC(=O)N(c1ccccc1)C1(COC)CCN(CCn2nnn(CC)c2=O)CC1 | inactive: -4.2% |
